Assay results from patent US9394282B2, “Pyrazole carboxamides as Janus kinase inhibitors” (Merck Sharp & Dohme Corp., priority 2011, dated 2016).

Sequences of proteins named here, by UniProt entry; tags and fusion partners are left off. Residues count along the entry.
UniProt O60674, 849-1124: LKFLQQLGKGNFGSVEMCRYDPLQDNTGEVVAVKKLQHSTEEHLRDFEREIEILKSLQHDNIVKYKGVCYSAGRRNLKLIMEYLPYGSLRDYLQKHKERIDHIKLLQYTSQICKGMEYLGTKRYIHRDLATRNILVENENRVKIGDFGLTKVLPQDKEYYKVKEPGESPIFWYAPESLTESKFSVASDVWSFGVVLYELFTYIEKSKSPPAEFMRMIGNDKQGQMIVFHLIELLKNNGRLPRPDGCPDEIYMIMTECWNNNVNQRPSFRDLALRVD
UniProt P23458, 875-1153: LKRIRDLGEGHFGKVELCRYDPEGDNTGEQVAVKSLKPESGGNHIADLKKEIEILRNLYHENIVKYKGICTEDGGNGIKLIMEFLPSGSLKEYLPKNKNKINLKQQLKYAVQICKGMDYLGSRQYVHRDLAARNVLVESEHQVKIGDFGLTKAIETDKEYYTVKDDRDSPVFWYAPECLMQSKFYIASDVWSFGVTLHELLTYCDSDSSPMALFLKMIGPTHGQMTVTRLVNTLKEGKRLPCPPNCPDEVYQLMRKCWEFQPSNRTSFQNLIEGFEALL

What follows are compounds tested against JAK2 (Homo sapiens (Human), UniProt O60674) (assay: Jak biochemical HTRF assay, JAK2). Details: recombinant purified GST-tagged catalytic domain; HTRF format; [ATP] 8.5 μM.
Source text: (§1) Jak Biochemical HTRF Assay Protocol
(§2) Subsequent reagent additions employed an Agilent Bravo.

SMILES	IC50 [nM]
CC(C)(C)CCOC(=O)N1CC[C@@H](C#N)C(n2cc(C(N)=O)c(Nc3ccc(F)cc3)n2)C1 (mixture of isomers) [Example 4, 3,3-Dimethylbutyl(3S,4R and 3R,4S)-3-{4-carbamoyl-3-[(4-fluorophenyl)amino]-1H-pyrazol-1-yl}-4-cyanopiperidine-1-carboxylate]	117
N#C[C@@H]1CN(C(=O)OCCC2CC2)CC[C@@H]1n1cc(C(N)=O)c(Nc2ccc(F)cc2)n1 (racemic) [Example 5-41, 2-cyclopropylethyl (3R,4S and 3S,4R)-4-{4-carbamoyl-3-[(4-fluorophenyl)amino]-1H-pyrazol-1-yl}-3-cyanopiperidine-1-carboxylate]	> 1500
N#C[C@@H]1CN(C(=O)OC2CCOC2)CC[C@@H]1n1cc(C(N)=O)c(Nc2ccc(F)cc2)n1 (mixture of isomers) [Example 5-51, tetrahydrofuran-3-yl (3R,4S and 3S,4R)-4-{4-carbamoyl-3-[(4-fluorophenyl)amino]-1H-pyrazol-1-yl}-3-cyanopiperidine-1-carboxylate]	> 1500
N#C[C@@H]1CN(C(=O)OC2CCOCC2)CC[C@@H]1n1cc(C(N)=O)c(Nc2ccc(F)cc2)n1 (racemic) [Example 5-60, tetrahydro-2H-pyran-4-yl (3R,4S and 3S,4R)-4-{4-carbamoyl-3-[(4-fluorophenyl)amino]-1H-pyrazol-1-yl}-3-cyanopiperidine-1-carboxylate]	> 1500
CC1(COC(=O)N2CC[C@H](n3cc(C(N)=O)c(Nc4ccc(F)cc4)n3)[C@H](C#N)C2)CC1 (racemic) [Example 5-62, (1-methylcyclopropyl)methyl (3R,4S and 3S,4R)-4-{4-carbamoyl-3-[(4-fluorophenyl)amino]-1H-pyrazol-1-yl}-3-cyanopiperidine-1-carboxylate]	> 1500
COCCCOC(=O)N1CC[C@H](n2cc(C(N)=O)c(Nc3ccc(F)cc3)n2)[C@H](C#N)C1 (racemic) [Example 5-63, 3-methoxypropyl (3R,4S and 3S,4R)-4-{4-carbamoyl-3-[(4-fluorophenyl)amino]-1H-pyrazol-1-yl}-3-cyanopiperidine-1-carboxylate]	> 1500
N#CCC1(COC(=O)N2CC[C@H](n3cc(C(N)=O)c(Nc4ccc(F)cc4)n3)[C@H](C#N)C2)CC1 (racemic) [Example 5-64, [1-(cyanomethyl)cyclopropyl]methyl (3R,4S and 3S,4R)-4-{4-carbamoyl-3-[(4-fluorophenyl)amino]-1H-pyrazol-1-yl}-3-cyanopiperidine-1-carboxylate]	> 1500
N#C[C@@H]1CCN(C(=O)OCC2CC2)CC1n1cc(C(N)=O)c(Nc2ccc(F)cc2)n1 (mixture of isomers) [Example 5-81, cyclopropylmethyl (3S,4R and 3R,4S)-3-{4-carbamoyl-3-[(4-fluorophenyl)amino]-1H-pyrazol-1-yl}-4-cyanopiperidine-1-carboxylate]	52
N#C[C@@H]1CCN(C(=O)OC2CCOCC2)CC1n1cc(C(N)=O)c(Nc2ccc(F)cc2)n1 (mixture of isomers) [Example 5-85, tetrahydro-2H-pyran-4-yl (3S,4R and 3R,4S)-3-{4-carbamoyl-3-[(4-fluorophenyl)amino]-1H-pyrazol-1-yl}-4-cyanopiperidine-1-carboxylate]	87
N#C[C@@H]1CCN(C(=O)OCCN2CCOCC2)CC1n1cc(C(N)=O)c(Nc2ccc(F)cc2)n1 (mixture of isomers) [Example 5-87, 2-morpholin-4-ylethyl (3S,4R and 3R,4S)-3-{4-carbamoyl-3-[(4-fluorophenyl)amino]-1H-pyrazol-1-yl}-4-cyanopiperidine-1-carboxylate]	85
N#C[C@@H]1CCN(C(=O)OCCC2CC2)CC1n1cc(C(N)=O)c(Nc2ccc(F)cc2)n1 (mixture of isomers) [Example 5-91, 2-cyclopropylethyl (3S,4R and 3R,4S)-3-{4-carbamoyl-3-[(4-fluorophenyl)amino]-1H-pyrazol-1-yl}-4-cyanopiperidine-1-carboxylate]	76
N#C[C@@H]1CS(=O)(=O)CCC1n1cc(C(N)=O)c(Nc2ccc(C(F)(F)F)cc2)n1 (mixture of isomers) [Example 8-3, 1-((3R,4R and 3S,4S)-3-cyano-1,1-dioxidotetrahydro-2H-thiopyran-4-yl)-3-((4-(trifluoromethyl)phenyl)amino)-1H-pyrazole-4-carboxamide]	146
N#C[C@@H]1CS(=O)(=O)CCC1n1cc(C(N)=O)c(Nc2ccc(C(F)(F)F)cc2)n1 (mixture of isomers) [Example 8-4, 1-((3R,4S and 3S,4R)-3-cyano-1,1-dioxidotetrahydro-2H-thiopyran-4-yl)-3-((4-(trifluoromethyl)phenyl)amino)-1H-pyrazole-4-carboxamide]	371
N#C[C@H]1COCC[C@@H]1n1cc(C(N)=O)c(Nc2ccnc(F)c2)n1 (single isomer, unassigned) [Example 11-1, 1-[(3S,4S or 3R,4R)-3-Cyanotetrahydro-2H-pyran-4-yl]-3-[(2-fluoropyridin-4-yl)amino]-1H-pyrazole-4-carboxamide]	323
N#C[C@@H]1CS(=O)(=O)CCC1n1cc(C(N)=O)c(Nc2ccc(C(F)(F)F)cc2)n1 (single isomer, unassigned) [Example 13-3, 1-((3R,4S or 3S,4R)-3-cyano-1,1-dioxidotetrahydro-2H-thiopyrdn-4-yl)-3-((4-(trifluoromethyl)phenyl)amino)-1H-pyrazole-4-carboxamide]	769
N#C[C@@H]1CS(=O)(=O)CCC1n1cc(C(N)=O)c(Nc2ccc(C(F)(F)F)cc2)n1 (single isomer, unassigned) [Example 13-4, 1-((3R,4S or 3S,4R)-3-cyano-1,1-dioxidotetrahydro-2H-thiopyran-4-yl)-3-((4-(trifluoromethyl)phenyl)amino)-1H-pyrazole-4-carboxamide]	33

These compounds were tested against JAK1 (Homo sapiens (Human), UniProt P23458) (assay: Jak biochemical HTRF assay, JAK1). Details: recombinant purified GST-tagged catalytic domain; HTRF format; [ATP] 31.8 μM.
Source text: as §1, §2

SMILES	IC50 [nM]
N#C[C@@H]1CN(C(=O)OC2CCCCC2)CC[C@H]1n1cc(C(N)=O)c(Nc2ccc(F)cc2)n1 (mixture of isomers) [Example 5-17, cyclohexyl (3R,4R and 3S,4S)-4-{4-carbamoyl-3-[(4-fluorophenyl)amino]-1H-pyrazol-1-yl}-3-cyanopiperidine-1-carboxylate]	97
CC(C)(C)OC(=O)N1CCC(n2cc(C(N)=O)c(Nc3ccc(F)cc3)n2)[C@H](C#N)C1 (mixture of isomers) [Example 2-2, (3R,4S and 3S,4R)-tert-butyl 4-(4-carbamoyl-3-((4-fluorophenyl)amino)-1H-pyrazol-1-yl)-3-cyanopiperidine-1-carboxylate]	154
CC(C)(C)OC(=O)N1CCC(n2cc(C(N)=O)c(Nc3ccc(F)cc3)n2)[C@@H](C#N)C1 (mixture of isomers) [Example 2-3, (3S,4S and 3R,4R)-tert-butyl 4-(4-carbamoyl-3-((4-fluorophenyl)amino)-1H-pyrazol-1-yl)-3-cyanopiperidine-1-carboxylate]	27
CC(C)(C#N)COC(=O)N1CC[C@@H](C#N)C(n2cc(C(N)=O)c(Nc3ccc(F)cc3)n2)C1 (mixture of isomers) [Example 5-69, 2-Cyano-2-methylpropyl (3S,4R and 3R,4S)-3-{4-carbamoyl-3-[(4-fluorophenyl)amino]-1H-pyrazol-1-yl}-4-cyanopiperidine-1-carboxylate]	1
N#C[C@@H]1CCN(C(=O)OCCF)CC1n1cc(C(N)=O)c(Nc2ccc(F)cc2)n1 (mixture of isomers) [Example 5-79, 2-fluoroethyl (3S,4R and 3R,4S)-3-{4-carbamoyl-3-[(4-fluorophenyl)amino]-1H-pyrazol-1-yl}-4-cyanopiperidine-1-carboxylate]	6
N#C[C@@H]1CCN(C(=O)OCC2CC2)CC1n1cc(C(N)=O)c(Nc2ccc(F)cc2)n1 (mixture of isomers) [Example 5-81, cyclopropylmethyl (3S,4R and 3R,4S)-3-{4-carbamoyl-3-[(4-fluorophenyl)amino]-1H-pyrazol-1-yl}-4-cyanopiperidine-1-carboxylate]	3
COCCOC(=O)N1CC[C@@H](C#N)C(n2cc(C(N)=O)c(Nc3ccc(F)cc3)n2)C1 (mixture of isomers) [Example 5-83, 2-methoxyethyl (3S,4R and 3R,4S)-3-{4-carbamoyl-3-[(4-fluorophenyl)amino]-1H-pyrazol-1-yl}-4-cyanopiperidine-1-carboxylate]	8
CC1(COC(=O)N2CC[C@@H](C#N)C(n3cc(C(N)=O)c(Nc4ccc(F)cc4)n3)C2)COC1 (mixture of isomers) [Example 5-90, (3-methyloxetan-3-yl)methyl (3S,4R and 3R,4S)-3-{4-carbamoyl-3-[(4-fluorophenyl)amino]-1H-pyrazol-1-yl}-4-cyanopiperidine-1-carboxylate]	4
N#C[C@@H]1CS(=O)(=O)CCC1n1cc(C(N)=O)c(Nc2ccc(C(F)(F)F)cc2)n1 (mixture of isomers) [Example 8-3, 1-((3R,4R and 3S,4S)-3-cyano-1,1-dioxidotetrahydro-2H-thiopyran-4-yl)-3-((4-(trifluoromethyl)phenyl)amino)-1H-pyrazole-4-carboxamide]	3
N#C[C@@H]1CS(=O)(=O)CCC1n1cc(C(N)=O)c(Nc2ccc(C(F)(F)F)cc2)n1 (mixture of isomers) [Example 8-4, 1-((3R,4S and 3S,4R)-3-cyano-1,1-dioxidotetrahydro-2H-thiopyran-4-yl)-3-((4-(trifluoromethyl)phenyl)amino)-1H-pyrazole-4-carboxamide]	30
N#C[C@H]1CS(=O)(=O)CC1n1cc(C(N)=O)c(Nc2ccc(F)cc2)n1 (mixture of isomers) [Example 8-5, 1-((3S,4S and 3R,4R)-4-cyano-1,1-dioxidotetrahydrothiophen-3-yl)-3-((4-fluorophenyl)amino)-1H-pyrazole-4-carboxamide]	1
N#C[C@@H]1CS(=O)(=O)CC1n1cc(C(N)=O)c(Nc2ccc(F)cc2)n1 (mixture of isomers) [Example 8-6, 1-((3S,4R and 3R,4S)-4-cyano-1,1-dioxidotetrahydrothiophen-3-yl)-3-((4-fluorophenyl)amino)-1H-pyrazole-4-carboxamide]	0.8
N#C[C@@H]1CS(=O)(=O)CC1n1cc(C(N)=O)c(Nc2ccc(S(=O)(=O)C(F)(F)F)cc2)n1 (mixture of isomers) [Example 8-7, 1-((3S,4R and 3R,4S)-4-cyano-1,1-dioxidotetrahydrothiophen-3-yl)-3-((4-((trifluoromethyl)sulfonyl)phenyl)amino)-1H-pyrazole-4-carboxamide]	0.5
N#C[C@H]1CCOC[C@@H]1n1cc(C(N)=O)c(Nc2ccnc(F)c2)n1 (single isomer, unassigned) [Example 9-2, 1-((3R,4S or 3S,4R)-4-cyano-tetrahydro-2H-pyran-3-yl)-3-(2-fluoropyridin-4-ylamino)-1H-pyrazole-4-carboxamide]	18
N#C[C@@H]1CS(=O)(=O)C[C@H]1n1cc(C(N)=O)c(Nc2ccc(F)cc2)n1 (single isomer, unassigned) [Example 12-1, 1-((3S,4R or 3R,4S)-4-Cyano-1,1-dioxidotetrahydrothiophen-3-yl)-3-((4-fluorophenyl)amino)-1H-pyrazole-4-carboxamide]	179
N#C[C@@H]1CS(=O)(=O)CCC1n1cc(C(N)=O)c(Nc2ccc(C(F)(F)F)cc2)n1 (single isomer, unassigned) [Example 13-3, 1-((3R,4S or 3S,4R)-3-cyano-1,1-dioxidotetrahydro-2H-thiopyrdn-4-yl)-3-((4-(trifluoromethyl)phenyl)amino)-1H-pyrazole-4-carboxamide]	71
N#C[C@@H]1CS(=O)(=O)CCC1n1cc(C(N)=O)c(Nc2ccc(C(F)(F)F)cc2)n1 (single isomer, unassigned) [Example 13-4, 1-((3R,4S or 3S,4R)-3-cyano-1,1-dioxidotetrahydro-2H-thiopyran-4-yl)-3-((4-(trifluoromethyl)phenyl)amino)-1H-pyrazole-4-carboxamide]	2
